{"source": "ChEMBL document CHEMBL5550150", "about": "“Discovery of 9H-pyrimido[4,5-b]indole derivatives as dual RET/TRKA inhibitors” (Bioorg Med Chem, 2024)", "test_system": "KM12", "assay": "Antiproliferative activity against human KM12 cells harbouring TRK assessed as reduction in cell viability", "type": "functional"}
{"smiles": "Cn1nc(C(C)(C)C)cc1NC(=O)Cc1ccc(Nc2ncnc3[nH]c4ccccc4c23)cc1", "values": [{"measurement": "GC50", "result": 0.27, "unit": "µM"}]}
{"smiles": "Cn1cc(-c2ccc3c(c2)[nH]c2ncnc(Nc4ccc(CC(=O)Nc5cc(C(C)(C)C)on5)cc4)c23)cn1", "values": [{"measurement": "GC50", "result": 0.67, "unit": "µM"}]}
{"smiles": "Cn1cc(-c2ccc3c(c2)[nH]c2ncnc(Nc4ccc(CC(=O)Nc5cc(C(C)(C)C)nn5C)cc4)c23)cn1", "values": [{"measurement": "GC50", "result": 0.25, "unit": "µM"}]}
